Results reported in US7250397B2, “Antiarrhythmic peptides” (Zealand Pharma A/S, priority 2000, dated 2007).

System: isolated guinea pig myocytes
Assay: Intercellular conductance Gj (GJIC), double patch clamp of cardiomyocyte pairs
Format: cell-based
Conditions: 10^−8 M; steady-state level; five experiments
Experimental: Cell preparation: Cells were isolated from guinea pig hearts by perfusion with collagenase according to the Langendorf method. In brief, guinea pigs were heparinised with an intraperitoneal injection of heparin (1000 IU/kg). After 30 minutes the animal was sacrificed by a blow to the neck followed by cutting the spine at the neck. The chest was opened and the aorta cannulated. Then the cannula was fixed to the aorta by a ligature, exised and perfused with Tyrodes solution for a couple of minutes. The Tyrodes solution had the following composition in mM: Na^+ 135.33, K^+ 4, Cl^− 145, PO4^− 0.33, Mg^2+ 1, Ca^2+ 2, Hepes 10, Glucose 10, pH 7.4. All perfusion media were bubled by 100% oxygen. […]. Then the heart was perfused with high K^+ solution with 0.6 mg/ml collagenase, this was done for 10-15 minutes judged from the apperance of the heart. The atria were cut off, the ventricles minced, whereafter the pieces were stirred in the collagenase solution by gently bubbling with 100% oxygen. […]
Where Ip,pulse and Ip,rest represent the current in the passive cell during the pulse and before the pulse respectively, and Up and Ua represent the voltage of the passive and active cell. […] However, the change in Gj value to a standardized intervention like a drug can be analysed by comparing the relative changes in Gj.

## Ac-D-Tyr-D-Pro-D-4Hyp-Gly-D-Ala-Gly-NH2 [Compound 2]
  ΔGj, relative change in intercellular conductance: +120±46%
